Assay [1] is filed under the species Homo sapiens. Kind of assay: Ratio of IC50 for DYRK2 (unknown origin) using woodtide as substrate to IC50 for DYRK1B (unknown origin) using woodtide as substrate.
The species named for assay [2] is Homo sapiens. Kind of assay: Ratio of IC50 for DYRK2 (unknown origin) using woodtide as substrate to IC50 for CLK1 (unknown origin) using KKGRSRSRSRSRSR as substrate.
The species entered for assay [3] is Homo sapiens. Kind of assay: Ratio of IC50 for DYRK1B (unknown origin) using woodtide as substrate to IC50 for DYRK1A (unknown origin) using woodtide as substrate.
Assay [4] is filed under the species Homo sapiens. Put plainly: Ratio of IC50 for DYRK2 (unknown origin) using woodtide as substrate to IC50 for DYRK1A (unknown origin) using woodtide as substrate.
The species entered for assay [5] is Homo sapiens. Put plainly: Ratio of IC50 for CLK1 (unknown origin) using KKGRSRSRSRSRSR as substrate to IC50 for DYRK1A (unknown origin) using woodtide as substrate.

For the molecule `NC(=O)Nc1ccc(-c2cnc3[nH]cc(-c4ccc(O)cc4)c3c2)cc1`, the Ratio IC50 in assay [1] and in assay [2] was 10 throughout.

Take `Nc1ccc(-c2cnc3[nH]cc(-c4ccc(O)cc4)c3c2)cc1`: the Ratio IC50 in assay [1] and in assay [2] was 10 throughout.

Consider `CC(=O)Nc1ccc(-c2cnc3[nH]cc(-c4ccc(O)cc4)c3c2)cc1`, for which the results for the Ratio IC50 in assay [3], in assay [4] and in assay [5] were 5, 80 and 5, respectively.

The values above are taken from ChEMBL document CHEMBL4007420, “Structural Optimization and Pharmacological Evaluation of Inhibitors Targeting Dual-Specificity Tyrosine Phosphorylation-Regulated Kinases (DYRK) and CDC-like kinases (CLK) in Glioblastoma” (J Med Chem, 2017).
